Test results taken from US9694016B2 (Novartis AG, priority 2013, dated 2017).

Sequences of proteins named here, by UniProt entry; tags and fusion partners are left off.
UniProt P04049, whole entry Y340E/Y341E: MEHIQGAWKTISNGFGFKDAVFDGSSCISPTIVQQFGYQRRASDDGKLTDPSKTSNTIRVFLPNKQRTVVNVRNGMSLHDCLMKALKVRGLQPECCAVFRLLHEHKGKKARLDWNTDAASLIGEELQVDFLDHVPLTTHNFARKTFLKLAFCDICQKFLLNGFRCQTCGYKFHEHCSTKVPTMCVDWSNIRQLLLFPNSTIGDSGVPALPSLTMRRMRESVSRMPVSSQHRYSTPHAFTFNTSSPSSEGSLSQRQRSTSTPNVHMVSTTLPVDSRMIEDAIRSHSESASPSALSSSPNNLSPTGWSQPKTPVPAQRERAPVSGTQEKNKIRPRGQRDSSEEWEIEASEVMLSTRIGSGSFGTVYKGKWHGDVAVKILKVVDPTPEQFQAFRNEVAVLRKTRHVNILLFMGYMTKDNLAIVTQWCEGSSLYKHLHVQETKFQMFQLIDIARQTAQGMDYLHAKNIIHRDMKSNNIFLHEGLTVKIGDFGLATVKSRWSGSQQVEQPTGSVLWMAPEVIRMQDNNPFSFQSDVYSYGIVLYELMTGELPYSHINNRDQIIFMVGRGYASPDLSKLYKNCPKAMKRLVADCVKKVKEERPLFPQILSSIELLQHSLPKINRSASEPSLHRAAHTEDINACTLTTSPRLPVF

Each molecule was assayed against C-Raf FL (full-length C-Raf protein, Y340E and Y341E activating mutations) (Homo sapiens (Human), UniProt P04049, Y340E/Y341E). Conditions: Table 2; AlphaScreen, 1 hour reaction; read-out: c-Raf FL IC-50.
Type: biochemical

| Compound | IC50 [nM] |
| --- | --- |
| COc1ncc(-c2cc(NC(=O)c3ccnc(C(C)(F)F)c3)cnc2Cl)cc1N1CCOCC1 [Example 261, N-(2-chloro-6′-methoxy-5′-morpholino-[3,3′-bipyridin]-5-yl)-2-(1,1-difluoroethyl)isonicotinamide] | 0.5 |
| COc1ncc(-c2cc(NC(=O)c3ccnc(C(C)(C)F)c3)cnc2Cl)cc1N1CCOCC1 [Example 262, N-(2-chloro-6′-methoxy-5′-morpholino-[3,3′-bipyridin]-5-yl)-2-(2-fluoropropan-2-yl)isonicotinamide] | 1 |
| COc1ncc(-c2cc(NC(=O)c3cnnc(C(F)(F)F)c3)cnc2Cl)cc1N1CCOCC1 [Example 263, N-(2-chloro-6′-methoxy-5′-morpholino-[3,3′-bipyridin]-5-yl)-6-(trifluoromethyl)pyridazine-4-carboxamide] | 3.3 |
| COc1ncc(-c2cc(NC(=O)c3ccnc(C(C)(C)C#N)c3)cnc2Cl)cc1N1CCOCC1 [Example 264, N-(2-chloro-6′-methoxy-5′-morpholino-[3,3′-bipyridin]-5-yl)-2-(2-cyanopropan-2-yl)isonicotinamide] | 2.4 |
| Cc1ncc(NC(=O)c2cc(CN(C)C)cc(C(F)(F)F)c2)cc1-c1cnc(N(C)C)c(N2CCOCC2)c1 [Example 269, N-(6′-(dimethylamino)-2-methyl-5′-morpholino-[3,3′-bipyridin]-5-yl)-3-((dimethylamino)methyl)-5-(trifluoromethyl)benzamide] | 0.9 |
| Cc1ncc(NC(=O)c2ccnc(C(C)(C)C#N)c2)cc1-c1cnc(OC2CCOCC2)c(N2CCOCC2)c1 [Example 272, 2-(2-cyanopropan-2-yl)-N-(2-methyl-5′-morpholino-6′-((tetrahydro-2H-pyran-4-yl)oxy)-[3,3′-bipyridin]-5-yl)isonicotinamide] | 2.7 |
| Cc1ncc(NC(=O)c2ccnc(C(C)(C)F)c2)cc1-c1cnc(OC2CCOCC2)c(N2CCOCC2)c1 [Example 273, 2-(2-fluoropropan-2-yl)-N-(2-methyl-5′-morpholino-6′-((tetrahydro-2H-pyran-4-yl)oxy)-[3,3′-bipyridin]-5-yl)isonicotinamide] | 1.1 |

Continued, values first:

| IC50 [nM] | Compound |
| --- | --- |
| 0.8 | COc1ncc(-c2cc(NC(=O)c3ccnc(C4(C#N)CC4)c3)cnc2Cl)cc1N1CCOCC1 [Example 260, N-(2-chloro-6′-methoxy-5′-morpholino-[3,3′-bipyridin]-5-yl)-2-(1-cyanocyclopropyl)isonicotinamide] |
| 1.1 | Cc1ncc(NC(=O)c2ccnc(C(C)(C)C#N)c2)cc1-c1cnc(N(C)C)c(N2CCOCC2)c1 [Example 265, 2-(2-cyanopropan-2-yl)-N-(6′-(dimethylamino)-2-methyl-5′-morpholino-[3,3′-bipyridin]-5-yl)isonicotinamide] |
| 0.5 | Cc1ncc(NC(=O)c2ccnc(C3(C#N)CC3)c2)cc1-c1cnc(N(C)C)c(N2CCOCC2)c1 [Example 266, 2-(1-cyanocyclopropyl)-N-(6′-(dimethylamino)-2-methyl-5′-morpholino-[3,3′-bipyridin]-5-yl)isonicotinamide] |
| 0.3 | Cc1ncc(NC(=O)c2ccnc(C(C)(F)F)c2)cc1-c1cnc(N(C)C)c(N2CCOCC2)c1 [Example 267] |
| 0.6 | Cc1ncc(NC(=O)c2ccnc(C(C)(C)F)c2)cc1-c1cnc(N(C)C)c(N2CCOCC2)c1 [Example 268, N-(6′-(dimethylamino)-2-methyl-5-morpholino-[3,3′-bipyridin]-5-yl)-2-(2-fluoropropan-2-yl)isonicotinamide] |
| 0.2 | Cc1ncc(NC(=O)c2cnnc(C(F)(F)F)c2)cc1-c1cnc(N(C)C)c(N2CCOCC2)c1 [Example 270, N-(6′-(dimethylamino)-2-methyl-5′-morpholino-[3,3′-bipyridin]-5-yl)-6-(trifluoromethyl)pyridazine-4-carboxamide] |
| 0.3 | Cc1ncc(NC(=O)c2cnnc(C3CC3)c2)cc1-c1cnc(N(C)C)c(N2CCOCC2)c1 [Example 271, 6-cyclopropyl-N-(6′-(dimethylamino)-2-methyl-5′-morpholino-[3,3′-bipyridin]-5-yl)pyridazine-4-carboxamide] |
